Where “and” joins values, the source holds several entries; their conditions need not be identical. Equal entries are not always repeated.
Test: pKa2 (Dissociation constant) value (phosphonate group) was determined
Assay type: physicochemical
In the case of `O=P(O)(O)[C@H](F)c1ccccc1`, the pKa2 is reported as 6.5 and 6.6. `O=P(O)(O)C(F)(F)c1ccccc1` showed a pKa2 of 5.71. In the case of `O=P(O)(O)[C@@H](F)c1ccccc1`, the pKa2 is reported as 6.5 and 6.6. In the case of `O=P(O)(O)C(F)c1ccccc1` (racemic), the pKa2 is reported as 6.5 and 6.6. In the case of `O=P(O)(O)Cc1ccccc1` [BENZYLPHOSPHONIC ACID], the pKa2 is reported as 7.6 and 7.72.

Reference: ChEMBL document CHEMBL1144964, “Inhibition of mandelate racemase by alpha-fluorobenzylphosphonates” (Bioorg Med Chem Lett, 2003)
